Assay results: the OPERA property sets (Mansouri et al. 2018)
Values after ≈ are worked out from the molar mass of the structure shown.

COC(=O)N(C)C(=O)CSP(C)(=S)OC (stereo unspecified)
solubility: 11.1 mM (≈ 3000 µg/mL)
